The record followed here is patent US20250382298A1, “NITROGEN-CONTAINING COMPOUND AND USE THEREOF” (SUZHOU GENHOUSE BIO CO., LTD., priority 2022, published 2025).

pEC50, pIC50: −log10 of the molar value.

For data set [1], the system named is HCT-116 cells. Nature of the data set: Mitotic index analysis, pH3 expression in HCT-116 cells. The conditions noted are these: read-out: HCT-116 EC50 (pH3 expression), 24 h treatment.
The subject of data set [2] is HT-29 cells. Nature of the data set: Mitotic index analysis, pH3 expression in HT-29 cells. The conditions noted are these: read-out: HT-29 EC50 (pH3 expression), 24 h treatment.
For data set [3], the system named is HT-29 cells. The data set can be described thus: Detection of cell proliferation activity by CCK8 method (HT-29). The conditions noted are these: read-out: HT-29 CCK8 method IC50, CCK8, 96 h. A general note: Tetrazolium assays rely on reduction of a dye to a coloured formazan, in cell work by metabolically active cells.
Data set [4] concerns OVCAR3 cells. Nature of the data set: Detection of cell proliferation activity by CCK8 method (OVCAR3). The note with it: read-out: OVCAR3 CCK8 method IC50, CCK8, 96 h.
Data set [5] concerns HCT-116 cells. The data set can be described thus: Detection of cell proliferation activity by CCK8 method (HCT-116). The note with it: read-out: HCT-116 CCK8 method IC50, CCK8, 96 h.
Data set [6] is described as follows: Pharmacokinetic test in mice. The conditions noted are these: BALB/c mice.
Data set [7] can be described thus: Pharmacokinetic test in rats. The note with it: SD rats, PO @5mpk.
The test system of data set [8] is OVCAR3 cells. Nature of the data set: Detection of OVCAR3 cell proliferation activity by CTG method. The conditions noted are these: read-out: OVCAR3 CTG method IC50, CellTiter-Glo, 7 days. (In ATP-based viability assays light output follows the ATP content of the culture.)
Another data set deals with BT-549 cells. Nature of the data set: Detection of cell proliferation activity by CCK8 method (BT-549). The conditions noted are these: read-out: BT-549 CCK8 method IC50, CCK8, 96 h.
Data set [9] is described as follows: Stability test in human liver microsomes. The conditions noted are these: human liver microsomes 0.5 mg/mL, 1.0 μM substrate. A general note: Microsomes from liver hold many membrane-bound enzymes, among them those of drug oxidation.
Data set [10] in a line: Stability test in mouse liver microsomes. The note with it: mouse liver microsomes 0.5 mg/mL, 1.0 μM substrate.
Data set [11] in a line: Stability test in rat liver microsomes. The note with it: rat liver microsomes 0.5 mg/mL, 1.0 μM substrate.

The pEC50 is the EC50 on a negative log10 scale, so that one unit is a factor of ten. The pIC50 is the negative decadic logarithm of the IC50, by convention in mol/L. Usually AUC stands for concentration integrated over time. A low value points to less exposure. The Cmax is the highest concentration seen after dosing. What is called t½ is how long it takes for the measured level to halve. A high value points to slow decline. Turning to `O=C(Nc1cc2cccnc2c(N2CCC(F)(F)CC2)n1)c1ccc(NS(=O)(=O)CCO)cc1N1CC2CCC(C2)C1`, the pEC50 was less than 5.00 in the data set on HCT-116 cells [1] and 7.91 with HT-29 cells [2]. In addition, the negative-log IC50 (pIC50) was 7.42 with HT-29 cells [3]; 7.71 in the data set with OVCAR3 cells [4]; less than 5.00 with HCT-116 cells [5]; 7.53 with OVCAR3 cells [8]; 7.13 in the data set with BT-549 cells. The AUC came to 537.225 µM·h in data set [6] (PO @30mpk) and 5.787 µM·h in [7]. Also, the Cmax is 28400 nM in [6] (PO @30mpk) and 390 nM in [7]. Besides, the F in data set [6] (PO @30mpk) is listed as 136%; in data set [7] it was 54%. In addition, the results for the t½ in data set [6] (PO @30mpk) and in [7] were 19.5 h and 8.1 h, respectively.
With `Cn1ncc2cc(NC(=O)c3ccc(NS(=O)(=O)CCO)cc3N3CCC4(CC3)CC4)nc(N3CCC(F)(F)CC3)c21`, in the data set on HCT-116 cells [1], the pEC50 is less than 5.00. For the same molecule, the negative logarithm of the EC50 (pEC50) in the data set with HT-29 cells [2] was 8.02. For the same molecule, the pIC50 with HT-29 cells [3] is 7.87. For the same molecule, in data set [9], the “HLM 0.5 CLint(liver)” value is less than 8.6 mL/min/kg and the “HLM 0.5 T½” value was greater than 2.42 h. The negative-log IC50 (pIC50) in the data set with OVCAR3 cells [4] is 8.36. Moreover, in data set [10], the “MLM 0.5 CLint(liver)” value is less than 38.0 mL/min/kg and the “MLM 0.5 T½” value was greater than 2.42 h. Further, in the data set on HCT-116 cells [5], the pIC50 was less than 5.00. For the same molecule, in data set [11], the “RLM 0.5 CLint(liver)” value is on record as less than 17.3 mL/min/kg and the “RLM 0.5 T½” value is greater than 2.42 h. Besides, in [6] (PO @5mpk), the exposure (AUC) is 16.331 µM·h, the Cmax turned out to be 1730 nM, the F came out at 135% and the t½ amounted to 2.8 h. Further, the pIC50 in the data set with OVCAR3 cells [8] was 8.21. Besides, the pIC50 in the data set with BT-549 cells was 7.79.
